# Reported properties for industrial, environmental and drug-like chemicals

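The numbers are reported measurements, compiled and curated for the OPERA QSAR suite. One number stands for a compound and property, with no spread given. How each value was measured is not recorded, so precision varies. Where a salt, mixture or single isomer is drawn, the source does not say that exactly this form was tested. Unmarked limits or estimates from the upstream databases cannot be ruled out.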

The melting point is given in degrees Celsius.
Boiling points are in °C, nominally at 760 mmHg.
The octanol-water partition coefficient is given as log10; larger values mean a more lipophilic compound.
Solubility in water is on a log10 molar scale (set defined at 25 °C).
Vapor pressures (log10 mmHg) refer to near room temperature, 15 to 30 °C; higher is more volatile.
The unbound fraction in human plasma runs from 0 (all bound) to 1 (all free).
Clint is human hepatic intrinsic clearance in µL/min per million cells; 0 means that no clearance was seen.
"–" marks a cell with nothing listed here.

Listed for C=C1C2CCC(C)(OCC)C1CCC2(C)C (stereo not drawn) [2-Ethoxy-2,6,6-trimethyl-9-methylenebicyclo[3.3.1]nonane]: log solubility -4.734 (log10 mol/L) and vapor pressure -1.824 (log10 mmHg).
Listed for O=c1oc(-c2ccc(-c3nc4ccccc4c(=O)o3)cc2)nc2ccccc12 [4H-3,1-Benzoxazin-4-one, 2,2'-(1,4-phenylene)bis-]: bp 456 °C and vapor pressure -7.935 (log10 mmHg).
Listed for CC(=O)C(=O)CC(C)C [5-Methyl-2,3-hexanedione]: mp -16.7 °C and vapor pressure 0.939 (log10 mmHg).
Listed for CC=C(C(=O)O)c1ccc([N+](=O)[O-])cc1 [alpha-Ethylidene-4-nitrobenzeneacetic acid]: mp 101.8 °C and logP (octanol/water) 2 and log solubility -2.546 (log10 mol/L) and vapor pressure -7.569 (log10 mmHg).
Listed for Cl.NNc1ccc(S(N)(=O)=O)cc1 [4-Hydrazinylbenzene-1-sulfonamide--hydrogen chloride (1/1)]: logP (octanol/water) -0.99 and vapor pressure -12.68 (log10 mmHg).
Listed for COC1=CCC2=C(CCC3C2CCC2(C)C3CCC2(O)C#N)C1 (stereo not drawn) [17-Hydroxy-3-methoxyestra-2,5(10)-diene-17-carbonitrile]: mp 179.7 °C and logP (octanol/water) 5.07 and log solubility -5.683 (log10 mol/L) and vapor pressure -8.097 (log10 mmHg).
Listed for NN1CC2CCCC2C1 (stereo not drawn) [Hexahydrocyclopenta[c]pyrrol-2(1H)-amine]: logP (octanol/water) 1.18 and vapor pressure -0.474 (log10 mmHg).
Listed for CC(C)(CO)C1OCC2(CO1)COC(C(C)(C)CO)OC2 (stereo not drawn): logP (octanol/water) 1.63 and log solubility -3.258 (log10 mol/L).
Listed for CC(=O)Oc1ccccc1C(=O)Nc1ncc([N+](=O)[O-])s1 [Nitazoxanide]: logP (octanol/water) 1.2 and log solubility -4.61 (log10 mol/L).
Listed for CN(c1ccccc1)S(=O)(=O)c1cc(O)c2c(/N=N/c3ccc(NC(=O)CCl)cc3S(=O)(=O)[O-])c(N)ccc2c1.[Na+]: logP (octanol/water) 0.97 and log solubility -4.359 (log10 mol/L).
Listed for Clc1ccc(Oc2cc(Cl)c(Cl)c(Cl)c2Cl)c(Cl)c1Cl [2,2',3,3',4,4',5-Heptachloro-diPh ether]: mp 104 °C and log solubility -9.12 (log10 mol/L).
Listed for CC(C)c1cccc(C(C)CC=O)c1 (stereo not drawn) [beta-Methyl-3-(1-methylethyl)benzenepropanal]: mp -50.08 °C and log solubility -3.677 (log10 mol/L) and vapor pressure -1.98 (log10 mmHg).
Listed for COc1cccc(C)c1C(=O)O [2-Methoxy-6-methylbenzoic acid]: mp 140 °C and vapor pressure -5.805 (log10 mmHg).
Listed for Cc1ccc(N(C)C)cc1 [N,N,4-Trimethylaniline]: log solubility -2.473 (log10 mol/L) and plasma fu 0.05498.
Listed for NCCCOCCOCCO [Ethanol, 2-[2-(3-aminopropoxy)ethoxy]-]: mp 14 °C and logP (octanol/water) -1.47 and vapor pressure -3.618 (log10 mmHg).
Listed for O=C(O[C@@H](C(=O)O)[C@@H](OC(=O)c1ccccc1)C(=O)O)c1ccccc1 [Dibenzoyl-L-tartaric acid]: logP (octanol/water) 1.01 and log solubility -2.049 (log10 mol/L) and vapor pressure -9.703 (log10 mmHg).
Listed for C[C@]12CC[C@@H]3c4ccc(O)cc4CC[C@H]3[C@@H]1C[C@@H](O)[C@@H]2O [Estriol]: log solubility -3.89 (log10 mol/L) and vapor pressure -9.706 (log10 mmHg).
Listed for Clc1ccc(Br)cc1Cl [Benzene, 4-bromo-1,2-dichloro-]: logP (octanol/water) 4.3 and vapor pressure -2.179 (log10 mmHg).
Listed for CCCCCCCCCOC(=O)c1ccc(C(=O)OCCCCCCCCC)c(C(=O)OCCCCCCCCC)c1 [Trinonyl benzene-1,2,4-tricarboxylate]: mp 8.55 °C and log solubility -6.757 (log10 mol/L) and vapor pressure -9.422 (log10 mmHg).
Listed for Nc1ccc2c(c1)C(=O)c1ccccc1C2=O [2-aminoanthraquinone]: plasma fu 0.0305 and hepatic Clint 30.8 µL/min/10^6 cells.

A selection of 2 entries from above:

SMILES	name	mp (°C)	bp (°C)	logP (octanol/water)	log solubility (log10 mol/L)	vapor pressure (log10 mmHg)	plasma fu	hepatic Clint (µL/min/10^6 cells)
Cl.NNc1ccc(S(N)(=O)=O)cc1	4-Hydrazinylbenzene-1-sulfonamide--hydrogen chloride (1/1)	–	–	-0.99	–	-12.68	–	–
Clc1ccc(Br)cc1Cl	Benzene, 4-bromo-1,2-dichloro-	–	–	4.3	–	-2.179	–	–

Source: data files of OPERA 2.9 (Mansouri et al.), github.com/kmansouri/OPERA.